Biological target: T1, human EAAT3 (Homo sapiens, UniProt P43005)
T1 construct: expressed in transfected cells
T1 sequence (P43005 1-524): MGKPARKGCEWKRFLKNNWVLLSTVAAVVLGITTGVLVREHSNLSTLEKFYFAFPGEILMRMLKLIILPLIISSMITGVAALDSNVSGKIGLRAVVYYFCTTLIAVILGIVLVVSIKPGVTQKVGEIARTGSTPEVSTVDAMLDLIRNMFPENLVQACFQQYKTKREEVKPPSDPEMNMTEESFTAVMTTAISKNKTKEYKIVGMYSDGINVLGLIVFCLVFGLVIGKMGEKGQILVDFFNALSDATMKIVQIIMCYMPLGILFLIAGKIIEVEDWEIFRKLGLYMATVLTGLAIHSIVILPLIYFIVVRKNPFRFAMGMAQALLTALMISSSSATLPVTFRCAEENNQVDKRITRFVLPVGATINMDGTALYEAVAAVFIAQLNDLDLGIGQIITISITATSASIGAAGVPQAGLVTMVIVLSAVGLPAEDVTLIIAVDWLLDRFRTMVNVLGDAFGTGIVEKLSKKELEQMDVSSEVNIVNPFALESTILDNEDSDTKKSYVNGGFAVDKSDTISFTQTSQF
Assay: Inhibition of [14C]-glutamic acid uptake by EAAT3 expressed in MDCK or COS-1 cells
Format: cell-based
Protocol: In accordance with a known method (Shimamoto, K. et al., Mol. Pharmacol. 53, 195-201, 1998; Bioorg. Med. Chem. Lett. 10, 2407-2410, 2000), the inhibitory activity was assayed as the ability to inhibit the uptake of [^14C]-glutamic acid by human EAAT2 and EAAT3 stably expressed in MDCK (Madin-Darby canine kidney) cells or transiently expressed in COS-1 cells. The glutamate uptake activity was assayed by incubating a mixture of 1 μM of L-[^14C]-glutamic acid with a sample compound at a predetermined concentration for 12 minutes, lysing the cells and then measuring the radioactivity incorporated into the cells with a liquid scintillator. The amount of uptake was expressed in percentage by referring the amount of uptake in the absence of a test compound (i.e., the buffer alone) as 100% and referring the amount of uptake in a sodium-free solution as 0%.

IC50 (1 μM L-[14C]-glutamic acid, 12 minutes): 0.088 ± 0.0048 µM
Inhibition of EAAT3, potency compared with I-BzA-TBOA (in words): almost the same potency as I-BzA-TBOA
Structure (SMILES): CCc1ccc(C(=O)Nc2cccc(CO[C@H](C(=O)O)[C@H](N)C(=O)O)c2)cc1 [Et-BzA-TBOA, (2S,3S)-3-[3-(4-ethylbenzoylamino)benzyloxy]aspartate]

— US8097654B2, “Radiolabeled 3-[3-(benzoyl-amido)benzyloxy]aspartic acid derivative and method of producing the same” (Suntory Holdings Limited, priority 2004, dated 2012)
